Test results: US20050123553A1, “Amyloid beta-peptide and methods of use” (priority 2003, published 2005)

The chains behind the UniProt entries cited, without tags or fusion partners. Where a name states a change or a piece, a line headed by the entry shows the natural chain unless it says otherwise.
UniProt P05067: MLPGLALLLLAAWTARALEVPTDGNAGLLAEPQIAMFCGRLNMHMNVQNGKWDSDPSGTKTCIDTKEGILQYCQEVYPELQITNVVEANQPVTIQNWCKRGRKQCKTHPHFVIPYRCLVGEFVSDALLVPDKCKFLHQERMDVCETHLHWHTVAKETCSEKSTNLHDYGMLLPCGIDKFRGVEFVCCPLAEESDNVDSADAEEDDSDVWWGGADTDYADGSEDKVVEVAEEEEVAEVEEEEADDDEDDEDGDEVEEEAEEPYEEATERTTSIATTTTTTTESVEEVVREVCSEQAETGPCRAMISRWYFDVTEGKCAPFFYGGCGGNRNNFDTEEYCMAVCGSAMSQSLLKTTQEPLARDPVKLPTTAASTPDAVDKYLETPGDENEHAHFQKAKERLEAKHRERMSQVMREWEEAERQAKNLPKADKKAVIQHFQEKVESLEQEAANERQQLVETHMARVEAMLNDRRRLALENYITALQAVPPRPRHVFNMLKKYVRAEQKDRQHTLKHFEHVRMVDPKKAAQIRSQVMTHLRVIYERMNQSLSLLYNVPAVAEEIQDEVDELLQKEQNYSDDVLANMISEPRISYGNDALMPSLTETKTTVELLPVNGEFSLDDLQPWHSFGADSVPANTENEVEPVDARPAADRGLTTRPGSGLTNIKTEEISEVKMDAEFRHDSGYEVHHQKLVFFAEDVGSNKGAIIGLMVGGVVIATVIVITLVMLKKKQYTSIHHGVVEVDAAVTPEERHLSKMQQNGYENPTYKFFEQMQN

Tested on: popliteal draining lymph nodes (PLN) T cells
Experiment: Lymph node T-cell proliferation after immunization of mice with Aβ in CFA
Type: cell-based, mouse
Settings: SJL mice immunized with rodent Aβ1-42

## Aβ9-23: Aβ peptide, residues 9-23 (GYEVHHQKLVFFAED; Amyloid-beta protein 42; UniProt P05067 680-694, looked up, fragment)
  T-cell proliferation across the peptide series Aβ7-21 to Aβ10-24: gradual increase
